From ChEMBL document CHEMBL4831544, “Discovery of IHMT-EZH2-115 as a Potent and Selective Enhancer of Zeste Homolog 2 (EZH2) Inhibitor for the Treatment of B-Cell Lymphomas” (J Med Chem, 2021)

The chains behind the UniProt entries cited, without tags or fusion partners.
UniProt Q15910, whole entry Y641F: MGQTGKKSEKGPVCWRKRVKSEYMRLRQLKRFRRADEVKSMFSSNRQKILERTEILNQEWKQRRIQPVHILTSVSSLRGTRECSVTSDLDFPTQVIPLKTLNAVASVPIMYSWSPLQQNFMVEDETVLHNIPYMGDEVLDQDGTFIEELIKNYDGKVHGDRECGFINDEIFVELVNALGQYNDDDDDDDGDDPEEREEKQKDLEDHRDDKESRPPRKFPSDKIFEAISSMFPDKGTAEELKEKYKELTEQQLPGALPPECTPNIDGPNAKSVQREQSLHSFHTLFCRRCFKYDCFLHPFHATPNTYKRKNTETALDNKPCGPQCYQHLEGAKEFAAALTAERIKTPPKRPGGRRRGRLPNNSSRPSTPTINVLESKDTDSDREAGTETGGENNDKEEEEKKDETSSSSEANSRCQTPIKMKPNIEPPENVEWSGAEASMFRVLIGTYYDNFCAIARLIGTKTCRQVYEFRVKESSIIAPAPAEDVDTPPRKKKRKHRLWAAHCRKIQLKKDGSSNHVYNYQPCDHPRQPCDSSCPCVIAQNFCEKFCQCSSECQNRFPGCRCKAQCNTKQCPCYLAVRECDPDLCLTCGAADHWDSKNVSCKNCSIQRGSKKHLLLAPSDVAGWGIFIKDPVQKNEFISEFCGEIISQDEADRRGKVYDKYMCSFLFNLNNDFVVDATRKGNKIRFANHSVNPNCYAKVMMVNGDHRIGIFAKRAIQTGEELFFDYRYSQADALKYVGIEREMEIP

Biological target: Histone-lysine N-methyltransferase EZH2 (Homo sapiens, UniProt Q15910, Y641F)
Assay: Inhibition of EZH2 Y641F mutant (unknown origin) using SAM as substrate incubated for 60 mins by luminescence microplate reader assay

| SMILES | pIC50 |
| --- | --- |
| Cc1cc(C)c(CNC(=O)c2cc(-c3ccc(CN4CCOCC4)cc3)cc3c2CCN3C(=O)C2CCOCC2)c(=O)[nH]1 | 5.21 |
| Cc1cc(C)c(CNC(=O)c2cc(-c3ccc(CN4CCOCC4)cc3)cc3c2CCN3C(=O)C2CC2)c(=O)[nH]1 | 5.28 |
| CCN(C(=O)C1CC1)c1cc(-c2ccc(N3CCN(CC4CC4)CC3)cc2)cc(C(=O)NCc2c(C)cc(C)[nH]c2=O)c1C | 7.30 |
| CCN1CCN(c2ccc(-c3cc(C(=O)NCc4c(C)cc(C)[nH]c4=O)c(C)c(N(CC)C(=O)C4CC4)c3)cc2)CC1 | 7.39 |
| CCN(C(=O)C1CC1)c1cc(-c2ccc(NC(=O)c3cccs3)cc2)cc(C(=O)NCc2c(C)cc(C)[nH]c2=O)c1C | 6.82 |
| CCN(C(=O)C1CC1)c1cc(-c2ccc(N3CCOCC3)cc2)cc(C(=O)NCc2c(C)cc(C)[nH]c2=O)c1C | 7.10 |
| Cc1cc(C)c(CNC(=O)c2cc(-c3ccc(CN4CCOCC4)cc3)cc3c2CCN3C(=O)c2ccco2)c(=O)[nH]1 | 5.20 |
| Cc1cc(C)c(CNC(=O)c2cc(-c3ccc(CN4CCOCC4)cc3)cc3c2CCN3C(=O)C2CCCC2)c(=O)[nH]1 | < 5.00 |
| CCN(C(=O)C1CC1)c1cc(-c2ccc(NC(=O)CCN(C)C)cc2)cc(C(=O)NCc2c(C)cc(C)[nH]c2=O)c1C | 7.46 |
| CCN(C(=O)C1CC1)c1cc(-c2ccc(N)cc2)cc(C(=O)NCc2c(C)cc(C)[nH]c2=O)c1C | 7.21 |
| CCN(C(=O)C1CC1)c1cc(-c2ccc(N3CCN(CC4CC4)CC3)nc2)cc(C(=O)NCc2c(C)cc(C)[nH]c2=O)c1C | 7.61 |
| CCN(C(=O)C1CC1)c1cc(-c2cnc(N3CCN(CC4CC4)CC3)cc2C)cc(C(=O)NCc2c(C)cc(C)[nH]c2=O)c1C | 7.39 |
| CCN(C(=O)C1CC1)c1cc(-c2cnc(N3CCN(CC4CC4)CC3)c(C)c2)cc(C(=O)NCc2c(C)cc(C)[nH]c2=O)c1C | 7.52 |
| CCN(C(=O)C1CC1)c1cc(-c2ccc(NC(=O)c3cccnc3)cc2)cc(C(=O)NCc2c(C)cc(C)[nH]c2=O)c1C | 7.15 |
| CCN(C(=O)C1CC1)c1cc(-c2ccc(N3CCNCC3)cc2)cc(C(=O)NCc2c(C)cc(C)[nH]c2=O)c1C | 7.48 |
| CCN(C(=O)C1CC1)c1cc(-c2ccc(NC(=O)C3CCOCC3)cc2)cc(C(=O)NCc2c(C)cc(C)[nH]c2=O)c1C | 7.30 |

pIC50: −log10 of the molar value.
